The source of these data is ChEMBL document CHEMBL3826913 (Eur J Med Chem, 2016).

This data set in a line: Aqueous solubility of compound. It counts as physicochemical. The note with it: buffer.
`Nc1ccc(-c2nc(O)c3cccc(O)c3n2)cc1`: the solubility entry was “soluble”.

As for `Oc1nc(-c2ccccc2)nc2c(O)cccc12`, the solubility entry is on record as “soluble”.

As for `O=c1[nH]c(-c2ccc(Cl)cc2)nc2c(O)cccc12`, the solubility entry is reported as “soluble”.

For `Cc1ccc(-c2nc3c(O)cccc3c(=O)[nH]2)cc1`, the solubility entry was “soluble”.

Consider `O=c1[nH]c(-c2ccc(Br)cc2)nc2c(O)cccc12`, for which the solubility result is “soluble”.

As for `Oc1ccc(-c2nc(O)c3cccc(O)c3n2)cc1`, the solubility result is “soluble”.
